This assay relates to Liver microsomes. Briefly: Antioxidant activity against […]/ascorbate-induced lipid peroxidation in Wistar rat liver microsomal membrane at 05 to 15 uM by TBARS assay. Type of assay: functional. To be noted: Microsome. On the technique in general: Liver microsomes are a subcellular fraction often used to study metabolism.

SMILES strings stand for the structures. Calls of active or inactive are those of the source. The rule behind the calls is not given here.

Regarding `COCCCCC(CO[N+](=O)[O-])O[N+](=O)[O-]` (stereo unspecified), the result was inactive.

For the origin of these results see ChEMBL document CHEMBL1139380, “Edaravone derivatives containing NO-donor functions” (J Med Chem, 2009).
